The numbers were not newly measured in US9517233B2, “Local cochlear application of statins for stimulating neurite regrowth in the cochlea” (Northwestern University, priority 2012, dated 2016), which cites them from elsewhere.

Structures are written as SMILES. Entries after “also recorded” stand apart in the source; their conditions may differ.

In this series the test system is spiral ganglion neurons. The note with it: cited from Lie et al. 2010 / Whitlon et al. 2006; cited from earlier work.

On to `Cc1cncc2cccc(S(=O)(=O)N3CCCNC[C@@H]3C)c12` [H1152, 4-methyl-5-{[(2S)-2-methyl-1,4-diazepan-1-yl]sulfonyl}isoquinoline], for which the “stimulation of neurite growth from spiral ganglion neurons in vitro (literature)” value was “increases neurite length; also recorded: can stimulate neurite growth”.
